Source: ChEMBL document CHEMBL1921705, “Thiophene inhibitors of PDE4: crystal structures show a second binding mode at the catalytic domain of PDE4D2” (Bioorg Med Chem Lett, 2011)

The chains behind the UniProt entries cited, without tags or fusion partners. Where a name states a change or a piece, a line headed by the entry shows the natural chain unless it says otherwise.
UniProt Q08499: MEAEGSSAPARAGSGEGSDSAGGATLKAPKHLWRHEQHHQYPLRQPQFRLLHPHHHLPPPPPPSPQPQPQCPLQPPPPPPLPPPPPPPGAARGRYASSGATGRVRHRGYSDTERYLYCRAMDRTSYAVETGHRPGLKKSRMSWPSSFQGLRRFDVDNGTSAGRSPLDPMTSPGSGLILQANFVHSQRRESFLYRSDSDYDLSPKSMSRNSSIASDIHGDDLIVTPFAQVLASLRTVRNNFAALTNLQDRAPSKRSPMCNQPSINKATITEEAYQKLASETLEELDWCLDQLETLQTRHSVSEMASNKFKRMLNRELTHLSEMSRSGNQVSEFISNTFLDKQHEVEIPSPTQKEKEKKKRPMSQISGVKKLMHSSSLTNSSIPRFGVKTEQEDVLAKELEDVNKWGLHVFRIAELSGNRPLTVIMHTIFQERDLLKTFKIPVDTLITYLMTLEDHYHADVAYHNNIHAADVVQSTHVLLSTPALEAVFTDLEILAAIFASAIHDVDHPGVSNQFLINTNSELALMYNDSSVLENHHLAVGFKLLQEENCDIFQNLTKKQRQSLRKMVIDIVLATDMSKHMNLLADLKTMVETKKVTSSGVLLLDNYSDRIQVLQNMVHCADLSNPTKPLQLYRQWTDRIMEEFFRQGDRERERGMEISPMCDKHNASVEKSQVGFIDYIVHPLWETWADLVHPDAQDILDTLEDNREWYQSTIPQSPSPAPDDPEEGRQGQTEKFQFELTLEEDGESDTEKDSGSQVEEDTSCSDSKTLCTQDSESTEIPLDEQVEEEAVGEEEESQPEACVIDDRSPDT

Molecular target: 3',5'-cyclic-AMP phosphodiesterase 4D (Homo sapiens, UniProt Q08499)
Assay: Inhibition of human recombinant PDE4D2 overexpressed in Escherichia coli after 15 mins using [3H]cAMP by scintillation proximity assay

IC50: 290 nM
Structure (SMILES): CCOC(=O)N1CCc2c(sc(NC(=O)Cc3cccs3)c2C(=O)OC2CCCC2)C1
